Each compound was assayed against CDK2/CycE (Homo sapiens (Human), UniProt P24941) (assay: biochemical). Settings: CDK2: CDK2/CycE kinase assay IC50.

In order of rising IC50:
1. COc1cc(F)ccc1-c1nc(Nc2cc(F)c(F)c(CS(C)(=O)=NC#N)c2)ncc1F (racemic) [Example 24, (rac)-[(2,3-Difluoro-5-{[5-fluoro-4-(4-fluoro-2-methoxyphenyl)pyrimidin-2-yl]amino}benzyl)-(methyl)oxido-λ^6-sulfanylidene]cyanamide]  73 nM
2. CCS(=O)(Cc1cc(F)cc(Nc2ncc(F)c(-c3ccc(F)cc3OC)n2)c1)=NC#N (racemic) [Example 42, (rac)-[Ethyl(3-fluoro-5-{[5-fluoro-4-(4-fluoro-2-methoxyphenyl)pyrimidin-2-yl]amino}benzyl)-oxido-λ^6-sulfanylidene]cyanamide]  160 nM
3. COc1cc(F)ccc1-c1nc(Nc2cc(CS(C)(=N)=O)cc(C(F)(F)F)c2)ncc1F (racemic) [Example 41, (rac)-5-Fluoro-4-(4-fluoro-2-methoxyphenyl)-N-[3-[(S-methylsulfonimidoyl)methyl]-5-(trifluoro-methyl)phenyl]pyrimidin-2-amine]  180 nM
4. COc1cc(F)ccc1-c1nc(Nc2cc(C)cc(CS(C)(=O)=NC#N)c2)ncc1F (racemic) [Example 58, (rac)-[(3-{[5-Fluoro-4-(4-fluoro-2-methoxyphenyl)pyrimidin-2-yl]amino}-5-methylbenzyl)(methyl)-oxido-λ^6-sulfanylidene]cyanamide]  220 nM
5. COc1cc(F)ccc1-c1nc(Nc2cc(CS(C)(=O)=NC#N)cc(C(F)(F)C(F)(F)F)c2)ncc1F (racemic) [Example 46, (rac)-{[3-{[5-Fluoro-4-(4-fluoro-2-methoxyphenyl)pyrimidin-2-yl]amino}-5-(pentafluoroethyl)-benzyl](methyl)oxido-λ^6-sulfanylidene}cyanamide]  630 nM
6. CS(=N)(=O)Cc1cccc(Nc2ncc(F)c(-c3ccc(F)cc3OCc3ccc(F)cc3)n2)c1 (racemic) [Example 55, (rac)-5-Fluoro-4-[4-fluoro-2-[(4-fluorobenzyl)oxy]phenyl]-N-[3-{(S-methylsulfonimidoyl)methyl]-phenyl}pyrimidin-2-amine]  770 nM

— patent US9133171B2 (priority 2011, dated 2015)
